From paper doi:10.1101/2024.07.10.602929

Molecular target: EGFR LIR1 peptide (EGFR residues 1076–1099), N-terminally biotinylated (UniProt P00533)
Experiment: BLI

LC3B (from UniProt Q9GZQ8 1-120) (natural protein)
fold weaker binding to LIR1 than GABARAP: 8 fold
fold weaker binding to LIR1 than GABARAPL1: 20 fold
